Target: T1, Fructose-1,6-bisphosphatase 1 (Sus scrofa, UniProt P00636)
T1 sequence (P00636 whole entry): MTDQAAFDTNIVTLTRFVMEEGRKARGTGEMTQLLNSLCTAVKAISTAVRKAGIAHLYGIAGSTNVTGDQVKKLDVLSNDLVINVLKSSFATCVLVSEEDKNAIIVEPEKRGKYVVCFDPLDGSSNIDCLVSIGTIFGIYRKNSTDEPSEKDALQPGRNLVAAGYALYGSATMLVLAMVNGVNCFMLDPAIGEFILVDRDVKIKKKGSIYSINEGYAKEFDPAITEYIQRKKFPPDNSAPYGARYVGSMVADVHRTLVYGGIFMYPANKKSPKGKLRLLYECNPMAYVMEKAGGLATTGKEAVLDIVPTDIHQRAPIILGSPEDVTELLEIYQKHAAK
Assay: Inhibition of pig kidney fructose-1,6-bisphosphatase expressed in Escherichia coli BL21 (DE3) assessed as reduction of NADP+ to NADPH by phosphoglucose isomerase/glucose-6-phosphate dehydrogenase coupled assay

For `CC(=O)C1=C(O)C=C2Oc3c(C(C)=O)c(O)c(C)c(O)c3[C@@]2(C)C1=O` [(+)-USNIC ACID], which IC50 is on record?
Its IC50 is 930 µM.
